How the values were obtained:
H-9 cells [1] = assay: Kinetic growth of H-9 cells on feeders in PB12/RCCD media formulations (Integral, Px,max, μ) with Statistica effect/regression models; format: cell-based, human; design: Effect on Integral / Effect on μ: unit not given here
From the text: A Placket-Burman matrix of 12 independent conditions (PB12) was used (Table 1), according to the Design of Experiments (DOE) methodology for the screening of 8 factors (RODRIGUES & IEMMA, 2005). […] Since this first step, the PB12, is a screening step, whenever it was possible the concentration of the factor was set as zero. • Condition 0: represents the central condition of the DOE, being the mean value obtained from averaging the values for levels −1 and +1. In addition to the central condition, the “main” central condition is defined as a state when all factors are set to condition 0.
In total, 14 different conditions were examined: 12 related to the PB12 matrix, 1 related to the “main” central condition that was performed in quadruplicates for the error estimation and a control condition with KSR. The basal media was: a 1:1 mixture 1:1 of DMEM and Ham's F12 (DMEM/F12; Mediatech, Manassas, Va.; catalog number 10-092), 1% NEAA, 110 μM β-mercaptoethanol (BME; Sigma-Aldrich, St. Louis, Mo.; catalog number M7522), 50 μg/mL gentamicin sulfate (Mediatech, Manassas, Va.; catalog number 30-005-CR) and 8 ng/mL of FGF-2 (Peprotech, Rocky Hill, N.J.; catalog number 100-18B). FGF-2 was reconstituted in PBS at 100 ug/mL and was added to the media for a final concentration of 8 ng/mL at the start of the culture. During the culture period, additional FGF-2 (8 ng/mL) was added directly to the media on a daily basis.
Every 24 hours one well from each condition and 4 wells from the main central condition were enzymatic dissociated and counted with the help of an automatic counter (NucleoCounter NC-100), for an unbiased measure of cell growth. In that way, by the end of the 5 days, a kinetic curve was obtained for every single condition (FIG. 1). Readouts like integral of cells (integral; defined as area below the curve), maximum productivity (Px,max; defined as the highest value obtained from dividing cell number by time) or and specific global ( ) growth rate (or speed of cell growth obtained from the formula dX/dt=pX) were calculated in order to perform the statistics comparing all different curves (Table 3).
Through the estimation of the effects from the least square method and the calculation of the errors obtained by the replicates performed on the main central condition (formulation 13), “t” was calculated as the ratio of effect and error.
By comparing the calculated “t” value with “t” values from a Student's “t” distribution table for a bilateral distribution, the p-value was obtained for each parameter in every readout. A priori, establishing a confidence interval of 90%, it is possible to identify, on Table 4, statistically significant (bolded) effect of a supplement on the Integral, Px,max and μ readout.
Aiming to understand better the contribution of each protein in the formulation of the media, an optimization step was performed using the Three-Variable Rotatable Central Composite Design (RCCD; Rodrigues and lemma, 2005). The concentration range of each supplement was the same as given in Table 2 for the PB12 design, with the same concentration for the level 0, −1, and +1 condition. Re-measurement at these levels provided further confidence to the previously measured results. In addition, two more levels, −1.68 and +1.68, were included to increase the number of measurements as recommended by the RCCD methodology.
The basal media was: a 1:1 mixture 1:1 of DMEM and Ham's F12 (DMEM/F12; Mediatech, Manassas, Va.; catalog number 10-092), 1.5% NEAA, 8.46 mg/L citric acid, 0.89×10^−4 mM sodium selenite, 2 mM glutamine (total of 4.5 mM), BME 110 μM, gentamicin sulfate 50 μg/mL and 8 ng/mL of FGF-2.
As before, kinetics growth of H-9 cells were obtained and readouts like Integral and Px, max were calculated (Table 6).
Through the use of Statistica software (StatSoft, Tulsa, Okla.), a second order mathematical model was generated in order to evaluate the real contribution of each supplement (Table 7).

H-9 cells [2] = assay: as above; format: cell-based, human; conditions: codified values
[3] = 1st RCCD, codified values, R^2 = 80.0%
[4] = PB12, level −1 to +1 (ranges Table 2), least square method

Albumin: CellPrime rAlbumin AF-S recombinant human albumin (Millipore); AF-G in the 4th RCCD
Regression coefficient (Linear), Px, max (H-9 cells [1]; [3]): 0.0154
Regression coefficient (Quadratic), Px, max (H-9 cells [1]; [3]): −0.0013
Regression coefficient (Linear), integral (H-9 cells [1]; 1st RCCD, codified values, R^2 = 86.4%): 75.95
Effect on Integral (H-9 cells [1]; [4]): 132.76
Effect on Px, max (H-9 cells [1]; [4]): 0.0297
Effect on μ (H-9 cells [1]; [4]): 0.0168
Regression coefficient (Quadratic), integral (H-9 cells [2]; 1st RCCD, R^2 = 86.4%): −4.80
Regression coefficient (Linear), Px, max (H-9 cells [2]; 2nd RCCD, R^2 = 37.9%): 0.0001
Regression coefficient (Quadratic), Px, max (H-9 cells [2]; 2nd RCCD, R^2 = 37.9%): −0.0084
Regression coefficient (Linear), integral (H-9 cells [2]; 2nd RCCD, R^2 = 62.7%): 12.93
Regression coefficient (Quadratic), integral (H-9 cells [2]; 2nd RCCD, R^2 = 62.7%): 0.38
Regression coefficient (Linear), integral (H-9 cells [2]; 3rd RCCD, R^2 = 65.8%): 8.42
Regression coefficient (Quadratic), integral (H-9 cells [2]; 3rd RCCD, R^2 = 65.8%): −1.49
Regression coefficient (Linear), Px, max (H-9 cells [2]; 3rd RCCD, R^2 = 86.4%): 0.072
Regression coefficient (Quadratic), Px, max (H-9 cells [2]; 3rd RCCD, R^2 = 86.4%): 0.0008
Regression coefficient (Linear), Px, max (H-9 cells [2]; 4th RCCD, R^2 = 69.0%): 0.0022
Regression coefficient (Quadratic), Px, max (H-9 cells [2]; 4th RCCD, R^2 = 69.0%): −0.0019
Regression coefficient (Linear), integral (H-9 cells [2]; 4th RCCD, R^2 = 88.0%): 8.51
Regression coefficient (Quadratic), integral (H-9 cells [2]; 4th RCCD, R^2 = 88.0%): −8.80

Source: patent US9725695B2, “Stem cell defined media for xeno-free and feeder free conditions and uses thereof” (The Regents of the University of California, priority 2010, dated 2017)
